This test is described as follows: Evaluation of GLUT9 Inhibitory Activity: Uricase/Hyper transiently-transfected human GLUT9 stably expressing cells or mock cells (blank) were seeded in a 96 well plate (Corning) at 1.6×10^5 cells/well, and cultured overnight at 37° C., 5% CO2. D-MEM/high glucose (Wako Pure Chemical Industries, Ltd.) containing 10% Fetal Bovine Serum (Lifetechnology) and 100 units/ml penicillin/100 μg/ml streptomycin (GIBCO) was used as a medium. High K− buffer (129.8 mM KCl, 1.2 mM KH2PO4, 1.2 mM MgSO4.7H2O, 1.3 mM CaCl2. 2H2O, 25 mM HEPES, pH 7.4 with 1 M Tris) and the medium were mixed in equal amount to prepare Assay Buffer. The medium in each well was removed, and the test compound solution (final 1% DMSO) diluted with Assay Buffer was added thereto at 50 μl/well, and the mixture was left stand at room temperature for 30 to 60 min. For the solvent control and blank, Assay Buffer containing DMSO alone was added at 50 μl/well, and the mixture was left stand at room temperature for 30 to 60 min. In addition, uric acid solution (containing [14C]uric acid as a tracer) diluted with Assay Buffer was added to each well at 15 μl/well (final 300 μM uric acid), and the uptake reaction was performed at room temperature for 6 min. […].

Usually IC50 stands for the point on the concentration scale where inhibition reaches its midpoint. Regarding `COc1ccc(-c2ncc([C@H]3CC[C@H](OC)CC3)cc2-c2ccc(C(=O)O)cc2)cc1`, the IC50 turned out to be 10 µM.
